Results from US20030133874A1, “Analytical method to evaluate animal models of neurofibrillary degeneration” (priority 2002, published 2003).

Test system: tau
Test: Tau phosphorylation in rat brain after prolonged pentobarbital anesthesia, immunoblot of heat-stable extracts

CCCC(C)C1(CC)C(=O)NC(=O)NC1=O (stereo not drawn) [pentobarbital]
AT8 reactivity normalized to total tau immunoreactivity, increase (65 mg/kg i.p., after five hours): more than five-fold
Tau-1 reactivity of tau (exposure beyond 15 minutes): decrease
AP422 reactivity of rat tau after induced hyperphosphorylation (surgical brain removal, prolonged anesthesia (5 hrs)): remains absent
